What was measured:
[1] = oral (rat); cited from earlier work
[2] = LD50 in rat; conditions: oral (rat), conversion in brackets

Question: What does the source list for Cl.Cl.Cl.Cl.NCCCNCCCCNCCCN [spermine tetrahydrochloride]?
Answer: LD50 [1]: 129 mg/kg; LD50 as concentration [2]: ~0.4 mM

— patent publication US10702572B2, “Methods and compounds to suppress viral genome release and packaging” (Carnegie Mellon University, priority 2015, dated 2020)
